As usually defined, the IC50 is the concentration needed to halve the response being measured.

Amino acid sequences for entries named in this document (tags omitted). Residues count along the entry.
UniProt P10632, whole entry: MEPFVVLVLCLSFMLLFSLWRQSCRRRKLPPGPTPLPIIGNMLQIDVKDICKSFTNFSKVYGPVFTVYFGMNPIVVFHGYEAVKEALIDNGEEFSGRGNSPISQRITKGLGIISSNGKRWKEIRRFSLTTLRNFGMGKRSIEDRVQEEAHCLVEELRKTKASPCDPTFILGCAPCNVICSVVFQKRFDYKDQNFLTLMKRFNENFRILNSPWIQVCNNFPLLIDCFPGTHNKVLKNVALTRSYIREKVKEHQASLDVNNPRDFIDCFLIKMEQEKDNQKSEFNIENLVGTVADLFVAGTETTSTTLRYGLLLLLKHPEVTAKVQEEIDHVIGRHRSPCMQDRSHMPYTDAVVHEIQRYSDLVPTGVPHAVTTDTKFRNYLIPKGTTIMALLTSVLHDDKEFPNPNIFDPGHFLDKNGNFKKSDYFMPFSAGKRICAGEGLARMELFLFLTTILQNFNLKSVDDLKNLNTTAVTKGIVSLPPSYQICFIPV
UniProt P08684, 2-503: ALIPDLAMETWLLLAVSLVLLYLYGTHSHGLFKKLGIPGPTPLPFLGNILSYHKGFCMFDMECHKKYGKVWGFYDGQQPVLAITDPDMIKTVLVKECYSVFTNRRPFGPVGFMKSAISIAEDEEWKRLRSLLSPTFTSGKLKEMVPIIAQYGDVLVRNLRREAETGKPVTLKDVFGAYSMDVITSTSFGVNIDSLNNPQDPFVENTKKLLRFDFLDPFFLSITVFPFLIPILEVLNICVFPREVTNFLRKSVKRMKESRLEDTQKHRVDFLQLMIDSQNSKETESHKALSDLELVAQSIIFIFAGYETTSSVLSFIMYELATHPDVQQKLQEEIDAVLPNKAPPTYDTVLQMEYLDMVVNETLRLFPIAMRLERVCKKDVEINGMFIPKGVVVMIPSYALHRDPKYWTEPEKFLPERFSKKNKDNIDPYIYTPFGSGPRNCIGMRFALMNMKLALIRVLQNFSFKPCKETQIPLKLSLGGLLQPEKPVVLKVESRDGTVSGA

The structures appear in SMILES notation. “And” between values parts separate entries of the source, which are not always exact repeats. Equal entries are not always repeated.

These results are taken from paper PMC8000448, “Inhibitory Effects of Schisandra Lignans on Cytochrome P450s and Uridine 5′-Diphospho-Glucuronosyl Transferases in Human Liver Microsomes” (Pharmaceutics, 2021).

One data set has as its target T1, CYP2C8 (Homo sapiens, UniProt P10632).
T1 construct: pooled HLMs (0.25 mg/mL); tissue XenoTech H2630; host or cells: pooled human liver microsomes, mixed gender
In words: CYP2C8 inhibition in HLMs (amodiaquine). It is filed as in vitro ADME. Conditions: reversible inhibition, read-out: IC50 RI, CYP2C8. The procedure: Lignans were first dissolved in methanol. […] All microsomal incubations were performed in triplicate.

The target of another data set is CYP3A (Homo sapiens, UniProt P08684). In words: CYP3A inhibition in HLMs (midazolam, nifedipine, testosterone).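 Note: pooled HLMs at 0.25 mg/mL in phosphate buffer, inhibitor across 0–50 µM, 10 min reaction at 37 °C after preincubation, probe metabolite quantified by LC-MS/MS, triplicate incubations.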 Conditions: human, pooled human liver microsomes, IC50 TDI, 30 min pre-incubation with NADPH generating system. Background: Liver microsomes are vesicles of endoplasmic reticulum, rich in cytochrome P450 enzymes.

For `COc1cc2c(c(OC)c1OC)-c1c(cc3c(c1OC)OCO3)C[C@H](C)[C@](C)(O)[C@H]2OC(=O)c1ccccc1` [Gomisin C, gomisin C], the IC50 on CYP2C8 is 16.5 µM and 10.9 µM.

On to `COc1c2c(cc3c1-c1c(cc4c(c1OC)OCO4)C[C@H](C)[C@H](C)C3)OCO2` [Wuweizisu C, wuweizisu C], for which the IC50 at 10 min against CYP3A (pH 7.4, probe nifedipine (cocktail set B), CYP3A (nifedipine), nifedipine) came out at 1.2 µM; against CYP3A (pH 7.4, probe testosterone (cocktail set B), CYP3A (testosterone), testosterone), 1.2 µM.
